Patent US20130310387A1, “Monocyclic Heteroaryl Cycloalkyldiamine Derivatives” (NOVARTIS AG, priority 2012, published 2013)

Target: Syk (2-635) (KSYK_HUMAN, P43405) (Homo sapiens, UniProt P43405)
Assay: Syk enzyme assay (chip based microfluidic mobility shift assay)
Format: biochemical
Details: 4 μM ATP, 4 nM Syk, 60 minutes at 30° C.
Method: A number of compounds of the present invention were assayed in a chip based microfluidic mobilitiy shift assay. All assays were performed in 384 well microtiter plates. Each assay plate contained 8-point serial dilutions for 40 test compounds, as well as four 8-point serial dilutions of staurosporine as reference compound, plus 16 high- and 16 low controls. Liquid handling and incubation steps were done on a Thermo CatX workstation equipped with a Innovadyne Nanodrop Express. Between pipetting steps, tips were cleaned in wash cycles using wash buffer. The assay plates were prepared by addition of 50 nl per well of compound solution in 90% DMSO. […] Plates with terminated kinase reactions were transferred to the Caliper LC3000 workstations for reading. […] Analytes are transported through the chip by constant buffer flow and the migration of the substrate peptide is monitored by the fluorescence signal of its label. […] Kinase activities were calculated from the amounts of formed phospho-peptide. […] values were determined from percent inhibition values at different compound concentrations by non-linear regression analysis. […]

## Cn1cc2c(Nc3nc(N[C@@H]4CCCC[C@@H]4N)nnc3C(N)=O)cccc2n1 [Example 2.2, 3-((1R,2S)-2-Amino-cyclohexylamino)-5-(2-methyl-2H-indazol-4-ylamino)-[1,2,4]triazine-6-carboxylic acid amide]
  IC50: 5.1 nM
